Assay results as given in US12172993B2 (priority 2018, dated 2024).

By UniProt entry, the sequences of proteins in these tests, tags left out. Where a name states a change or a piece, a line headed by the entry shows the natural chain unless it says otherwise. Residues count along the entry.
UniProt Q16620, 32-822 limits assumed: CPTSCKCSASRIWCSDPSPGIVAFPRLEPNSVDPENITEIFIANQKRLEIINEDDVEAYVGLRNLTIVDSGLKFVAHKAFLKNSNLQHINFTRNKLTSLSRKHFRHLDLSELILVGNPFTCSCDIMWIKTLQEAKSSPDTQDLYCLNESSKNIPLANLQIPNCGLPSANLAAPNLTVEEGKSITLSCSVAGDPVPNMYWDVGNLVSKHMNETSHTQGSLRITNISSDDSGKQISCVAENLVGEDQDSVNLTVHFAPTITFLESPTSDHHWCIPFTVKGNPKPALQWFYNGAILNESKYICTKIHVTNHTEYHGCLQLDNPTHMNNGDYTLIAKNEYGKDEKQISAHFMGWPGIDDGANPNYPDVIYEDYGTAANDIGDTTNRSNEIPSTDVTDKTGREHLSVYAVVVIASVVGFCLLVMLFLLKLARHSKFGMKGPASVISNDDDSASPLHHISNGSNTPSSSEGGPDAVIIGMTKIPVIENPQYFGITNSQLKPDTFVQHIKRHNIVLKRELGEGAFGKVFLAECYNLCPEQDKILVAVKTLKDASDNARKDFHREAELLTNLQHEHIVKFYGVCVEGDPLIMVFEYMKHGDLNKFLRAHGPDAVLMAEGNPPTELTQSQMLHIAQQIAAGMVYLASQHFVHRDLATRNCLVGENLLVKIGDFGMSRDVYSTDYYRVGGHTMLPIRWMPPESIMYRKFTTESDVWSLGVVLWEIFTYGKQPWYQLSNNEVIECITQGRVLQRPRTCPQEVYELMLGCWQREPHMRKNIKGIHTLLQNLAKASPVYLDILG
UniProt P36896, 24-505 limits assumed: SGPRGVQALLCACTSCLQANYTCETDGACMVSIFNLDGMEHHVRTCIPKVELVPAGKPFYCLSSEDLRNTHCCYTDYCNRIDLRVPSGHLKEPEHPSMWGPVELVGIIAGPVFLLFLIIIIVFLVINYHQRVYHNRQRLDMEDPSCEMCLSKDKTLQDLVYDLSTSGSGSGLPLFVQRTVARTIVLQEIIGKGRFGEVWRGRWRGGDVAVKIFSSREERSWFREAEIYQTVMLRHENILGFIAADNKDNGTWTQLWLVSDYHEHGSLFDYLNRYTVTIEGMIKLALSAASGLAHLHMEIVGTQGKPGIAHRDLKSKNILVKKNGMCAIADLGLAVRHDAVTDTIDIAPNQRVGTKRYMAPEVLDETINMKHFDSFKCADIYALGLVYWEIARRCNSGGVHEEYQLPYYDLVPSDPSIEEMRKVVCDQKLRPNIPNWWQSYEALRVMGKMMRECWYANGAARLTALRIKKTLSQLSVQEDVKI
UniProt P29320, 21-983 limits assumed: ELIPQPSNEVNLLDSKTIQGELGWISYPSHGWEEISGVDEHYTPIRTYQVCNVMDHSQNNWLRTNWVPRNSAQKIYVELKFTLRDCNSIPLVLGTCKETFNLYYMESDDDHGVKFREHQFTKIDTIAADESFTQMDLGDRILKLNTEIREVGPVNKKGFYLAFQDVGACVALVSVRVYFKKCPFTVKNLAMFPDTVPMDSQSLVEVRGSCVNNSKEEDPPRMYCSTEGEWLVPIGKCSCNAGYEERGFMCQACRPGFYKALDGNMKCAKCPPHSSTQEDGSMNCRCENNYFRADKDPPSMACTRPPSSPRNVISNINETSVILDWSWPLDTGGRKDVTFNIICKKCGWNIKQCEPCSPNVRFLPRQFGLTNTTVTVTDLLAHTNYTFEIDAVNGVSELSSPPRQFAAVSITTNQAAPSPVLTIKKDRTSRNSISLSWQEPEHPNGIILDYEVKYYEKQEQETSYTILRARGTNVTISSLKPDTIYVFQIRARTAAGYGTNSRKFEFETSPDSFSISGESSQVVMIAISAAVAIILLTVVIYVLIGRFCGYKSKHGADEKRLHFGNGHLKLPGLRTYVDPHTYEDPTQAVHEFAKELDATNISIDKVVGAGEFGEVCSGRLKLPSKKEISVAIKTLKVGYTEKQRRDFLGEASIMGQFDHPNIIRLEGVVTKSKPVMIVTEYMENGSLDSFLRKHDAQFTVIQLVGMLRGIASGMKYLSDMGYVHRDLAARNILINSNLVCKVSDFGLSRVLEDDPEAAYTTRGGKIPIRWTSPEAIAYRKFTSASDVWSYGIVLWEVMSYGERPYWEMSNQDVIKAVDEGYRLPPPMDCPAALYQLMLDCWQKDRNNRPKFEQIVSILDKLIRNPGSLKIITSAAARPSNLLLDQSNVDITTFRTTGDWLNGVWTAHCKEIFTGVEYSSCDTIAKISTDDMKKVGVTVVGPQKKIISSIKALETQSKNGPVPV
UniProt P29323, 19-1055 limits assumed: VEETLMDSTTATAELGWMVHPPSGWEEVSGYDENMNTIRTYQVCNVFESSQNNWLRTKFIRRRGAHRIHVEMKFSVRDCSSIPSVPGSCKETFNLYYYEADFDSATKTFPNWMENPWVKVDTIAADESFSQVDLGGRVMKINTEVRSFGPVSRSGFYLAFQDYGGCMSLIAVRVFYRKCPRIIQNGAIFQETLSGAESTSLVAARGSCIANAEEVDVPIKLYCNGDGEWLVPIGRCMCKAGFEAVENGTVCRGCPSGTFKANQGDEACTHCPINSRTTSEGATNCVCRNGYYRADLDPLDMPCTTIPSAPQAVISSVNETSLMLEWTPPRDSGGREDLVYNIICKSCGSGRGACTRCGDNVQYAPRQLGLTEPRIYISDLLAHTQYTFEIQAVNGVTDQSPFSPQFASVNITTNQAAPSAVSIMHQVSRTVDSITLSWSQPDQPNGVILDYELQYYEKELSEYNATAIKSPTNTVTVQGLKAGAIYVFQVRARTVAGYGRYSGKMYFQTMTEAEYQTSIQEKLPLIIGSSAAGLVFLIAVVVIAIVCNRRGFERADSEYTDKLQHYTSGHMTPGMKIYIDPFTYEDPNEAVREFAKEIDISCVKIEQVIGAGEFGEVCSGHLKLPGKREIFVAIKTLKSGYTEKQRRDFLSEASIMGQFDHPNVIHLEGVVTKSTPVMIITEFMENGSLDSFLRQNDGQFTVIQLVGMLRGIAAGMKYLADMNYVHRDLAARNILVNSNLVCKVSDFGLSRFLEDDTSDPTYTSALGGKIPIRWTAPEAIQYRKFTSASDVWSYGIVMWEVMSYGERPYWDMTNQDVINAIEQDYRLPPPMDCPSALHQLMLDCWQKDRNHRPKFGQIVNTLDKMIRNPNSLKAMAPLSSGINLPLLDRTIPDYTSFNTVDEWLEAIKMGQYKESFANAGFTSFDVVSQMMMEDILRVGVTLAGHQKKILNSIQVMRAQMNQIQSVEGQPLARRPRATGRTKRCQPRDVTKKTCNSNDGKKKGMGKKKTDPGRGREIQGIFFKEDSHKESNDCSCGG
UniProt P54760, 16-987 limits assumed: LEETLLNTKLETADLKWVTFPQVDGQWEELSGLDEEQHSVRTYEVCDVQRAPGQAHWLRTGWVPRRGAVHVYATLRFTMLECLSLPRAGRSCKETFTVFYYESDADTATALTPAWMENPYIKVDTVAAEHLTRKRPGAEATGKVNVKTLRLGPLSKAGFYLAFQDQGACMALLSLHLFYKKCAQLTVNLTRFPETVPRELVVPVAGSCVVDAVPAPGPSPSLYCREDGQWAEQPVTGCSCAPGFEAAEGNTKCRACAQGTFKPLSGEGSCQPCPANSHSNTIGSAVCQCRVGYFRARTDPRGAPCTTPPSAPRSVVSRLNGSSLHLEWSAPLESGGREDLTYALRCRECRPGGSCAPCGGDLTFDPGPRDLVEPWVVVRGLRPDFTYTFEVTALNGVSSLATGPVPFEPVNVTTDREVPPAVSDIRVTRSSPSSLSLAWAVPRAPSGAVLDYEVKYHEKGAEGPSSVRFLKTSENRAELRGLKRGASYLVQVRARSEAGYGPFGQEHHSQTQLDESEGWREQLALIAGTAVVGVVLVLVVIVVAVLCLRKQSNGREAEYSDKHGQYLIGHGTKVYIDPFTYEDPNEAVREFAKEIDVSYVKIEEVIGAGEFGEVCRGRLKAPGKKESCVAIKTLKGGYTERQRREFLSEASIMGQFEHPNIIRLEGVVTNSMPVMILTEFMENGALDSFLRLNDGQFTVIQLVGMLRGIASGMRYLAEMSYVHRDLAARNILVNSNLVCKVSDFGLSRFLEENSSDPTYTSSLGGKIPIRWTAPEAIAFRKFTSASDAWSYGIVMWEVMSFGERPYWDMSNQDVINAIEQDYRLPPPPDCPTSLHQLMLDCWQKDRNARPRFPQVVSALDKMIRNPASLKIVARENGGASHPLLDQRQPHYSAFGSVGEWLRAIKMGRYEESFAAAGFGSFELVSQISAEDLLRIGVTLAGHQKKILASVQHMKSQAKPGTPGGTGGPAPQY
UniProt P09619, 33-1106 limits assumed: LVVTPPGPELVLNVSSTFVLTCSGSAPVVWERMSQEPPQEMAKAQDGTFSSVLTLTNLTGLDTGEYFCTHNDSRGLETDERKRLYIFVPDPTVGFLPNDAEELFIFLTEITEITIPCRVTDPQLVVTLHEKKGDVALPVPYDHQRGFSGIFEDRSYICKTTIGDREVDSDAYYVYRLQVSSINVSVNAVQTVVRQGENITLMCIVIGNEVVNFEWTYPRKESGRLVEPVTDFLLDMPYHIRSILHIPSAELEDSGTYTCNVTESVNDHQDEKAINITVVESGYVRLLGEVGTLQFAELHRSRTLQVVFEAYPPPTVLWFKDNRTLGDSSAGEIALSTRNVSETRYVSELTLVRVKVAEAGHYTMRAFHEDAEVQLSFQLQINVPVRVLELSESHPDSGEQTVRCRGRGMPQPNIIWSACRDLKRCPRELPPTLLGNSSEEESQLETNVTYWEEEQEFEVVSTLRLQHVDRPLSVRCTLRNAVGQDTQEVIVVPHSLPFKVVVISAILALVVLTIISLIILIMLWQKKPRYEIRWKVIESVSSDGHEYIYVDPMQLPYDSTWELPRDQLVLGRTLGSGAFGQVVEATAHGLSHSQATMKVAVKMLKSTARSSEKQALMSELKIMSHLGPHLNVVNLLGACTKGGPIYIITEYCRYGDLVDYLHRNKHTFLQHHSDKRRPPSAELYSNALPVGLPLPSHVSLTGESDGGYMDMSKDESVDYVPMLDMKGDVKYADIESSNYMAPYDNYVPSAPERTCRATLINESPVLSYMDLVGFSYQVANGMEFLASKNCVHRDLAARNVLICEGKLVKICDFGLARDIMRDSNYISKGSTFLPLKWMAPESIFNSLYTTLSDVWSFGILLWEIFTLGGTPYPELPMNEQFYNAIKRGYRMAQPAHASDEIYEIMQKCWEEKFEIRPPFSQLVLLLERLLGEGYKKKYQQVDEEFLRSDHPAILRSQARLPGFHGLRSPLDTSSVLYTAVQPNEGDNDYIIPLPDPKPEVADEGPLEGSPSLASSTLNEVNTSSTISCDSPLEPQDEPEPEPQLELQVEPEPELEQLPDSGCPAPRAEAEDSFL
UniProt P21802, 22-821 limits assumed: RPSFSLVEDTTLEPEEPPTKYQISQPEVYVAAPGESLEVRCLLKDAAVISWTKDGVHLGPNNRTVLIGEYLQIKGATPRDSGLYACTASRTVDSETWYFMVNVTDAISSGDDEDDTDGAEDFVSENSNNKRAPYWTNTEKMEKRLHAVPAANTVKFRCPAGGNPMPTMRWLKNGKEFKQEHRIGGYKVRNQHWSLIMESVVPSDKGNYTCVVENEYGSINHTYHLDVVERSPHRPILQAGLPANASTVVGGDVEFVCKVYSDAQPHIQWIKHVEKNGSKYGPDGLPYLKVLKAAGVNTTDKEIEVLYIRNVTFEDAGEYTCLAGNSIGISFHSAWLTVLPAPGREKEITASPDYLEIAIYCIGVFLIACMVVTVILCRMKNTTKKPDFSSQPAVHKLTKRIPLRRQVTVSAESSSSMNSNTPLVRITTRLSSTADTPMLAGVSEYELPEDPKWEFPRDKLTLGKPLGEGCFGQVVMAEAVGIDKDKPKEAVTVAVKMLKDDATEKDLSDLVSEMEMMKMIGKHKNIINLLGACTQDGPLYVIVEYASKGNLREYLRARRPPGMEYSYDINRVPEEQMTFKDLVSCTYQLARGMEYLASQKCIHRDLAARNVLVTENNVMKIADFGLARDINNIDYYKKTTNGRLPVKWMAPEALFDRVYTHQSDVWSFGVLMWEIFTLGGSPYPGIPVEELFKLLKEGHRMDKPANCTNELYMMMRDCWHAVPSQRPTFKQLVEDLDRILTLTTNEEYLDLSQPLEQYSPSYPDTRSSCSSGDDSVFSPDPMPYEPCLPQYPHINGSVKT
UniProt P36897, 34-503 limits assumed: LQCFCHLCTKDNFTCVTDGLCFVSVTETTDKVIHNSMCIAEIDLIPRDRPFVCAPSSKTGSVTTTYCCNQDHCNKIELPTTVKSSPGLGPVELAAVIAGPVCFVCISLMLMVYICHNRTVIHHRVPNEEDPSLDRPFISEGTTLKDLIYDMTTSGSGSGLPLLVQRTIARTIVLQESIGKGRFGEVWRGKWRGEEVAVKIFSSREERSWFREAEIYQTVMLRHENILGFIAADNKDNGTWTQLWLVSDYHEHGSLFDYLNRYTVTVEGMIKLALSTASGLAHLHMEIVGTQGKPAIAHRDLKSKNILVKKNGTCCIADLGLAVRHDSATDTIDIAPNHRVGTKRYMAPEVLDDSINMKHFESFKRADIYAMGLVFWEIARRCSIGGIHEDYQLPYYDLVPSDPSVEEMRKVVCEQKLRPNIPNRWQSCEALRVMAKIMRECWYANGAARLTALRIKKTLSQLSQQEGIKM

Tests used:
[1] = system: human plasma-proteins
[2] = system: immune cells present in the tumour microenvironment; conditions: mouse, in vivo
[3] = system: MC38 cells; assay: cells; conditions: Mus musculus, MC-38, 72 h, read-out: MC38 IC50 (nM at 100 ng/mL TNF)
[4] = in vivo; cited from earlier work
[5] = biological target: CYP2C8 (Homo sapiens (Human), UniProt P10632); conditions: CYP450 2C8; from NDA 21-986 Pre-clinical Review; cited from earlier work
[6] = system: KU812 tumours; conditions: 50 mg/kg/day for 5 days, large KU812 tumours; cited from earlier work
[7] = biological target: MYLK2 (Homo sapiens (Human), UniProt Q9H1R3); assay: biochemical; conditions: read-out: Residual activity (%) at 1 μM
[8] = biological target: RPS6KA6 (Homo sapiens (Human), UniProt Q9UK32); assay: biochemical; conditions: read-out: Residual activity (%) at 1 μM
[9] = biological target: TBK1 (Homo sapiens (Human), UniProt Q9UHD2); assay: biochemical; conditions: read-out: Residual activity (%) at 1 μM
[10] = biological target: TRKB (Homo sapiens (Human), UniProt Q16620); assay: biochemical; conditions: read-out: Residual activity (%) at 1 μM
[11] = biological target: ACV-R1B (Homo sapiens (Human), UniProt P36896); assay: biochemical; conditions: read-out: Residual activity (%) at 1 μM
[12] = biological target: p38-alpha (Homo sapiens (Human), UniProt Q16539); assay: biochemical; conditions: read-out: Residual activity (%) at 1 μM
[13] = biological target: MAP4K5 (Homo sapiens (Human), UniProt Q9Y4K4); assay: biochemical; conditions: read-out: Residual activity (%) at 1 μM
[14] = biological target: T1, EPH-A6 (Homo sapiens (Human), UniProt Q9UF33)
[15] = biological target: T2, FLT3 (Homo sapiens (Human), UniProt P36888)
[16] = biological target: T3, MAP3K11 (Homo sapiens (Human), UniProt Q16584)
[17] = biological target: T4, p38-beta (Homo sapiens (Human), UniProt Q15759)
[18] = biological target: T5, RET (Homo sapiens (Human), UniProt P07949)
[19] = biological target: T6, NEK11 (Homo sapiens (Human), UniProt Q8NG66)
[20] = biological target: NIK (Homo sapiens (Human), UniProt Q99558); assay: biochemical; conditions: read-out: Residual activity (%) at 1 μM
[21] = biological target: EPH-A1 (Homo sapiens (Human), UniProt P21709); assay: biochemical; conditions: read-out: Residual activity (%) at 1 μM
[22] = biological target: EPH-A2 (Homo sapiens (Human), UniProt P29317); assay: biochemical; conditions: read-out: Residual activity (%) at 1 μM
[23] = biological target: EPH-A3 (Homo sapiens (Human), UniProt P29320); assay: biochemical; conditions: read-out: Residual activity (%) at 1 μM
[24] = biological target: EPH-A4 (Homo sapiens (Human), UniProt P54764); assay: biochemical; conditions: read-out: Residual activity (%) at 1 μM
[25] = biological target: EPH-A5 (Homo sapiens (Human), UniProt P54756); assay: biochemical; conditions: read-out: Residual activity (%) at 1 μM
[26] = biological target: T1, EPH-A6; assay: biochemical; conditions: read-out: Residual activity (%) at 1 μM
[27] = biological target: EPH-A7 (Homo sapiens (Human), UniProt Q15375); assay: biochemical; conditions: read-out: Residual activity (%) at 1 μM
[28] = biological target: EPH-A8 (Homo sapiens (Human), UniProt P29322); assay: biochemical; conditions: read-out: Residual activity (%) at 1 μM
[29] = biological target: EPH-B1 (Homo sapiens (Human), UniProt P54762); assay: biochemical; conditions: read-out: Residual activity (%) at 1 μM
[30] = biological target: EPH-B2 (Homo sapiens (Human), UniProt P29323); assay: biochemical; conditions: read-out: Residual activity (%) at 1 μM
[31] = biological target: EPH-B3 (Homo sapiens (Human), UniProt P54753); assay: biochemical; conditions: read-out: Residual activity (%) at 1 μM
[32] = biological target: EPH-B4 (Homo sapiens (Human), UniProt P54760); assay: biochemical; conditions: read-out: Residual activity (%) at 1 μM
[33] = biological target: KIT (Homo sapiens (Human), UniProt P10721); assay: biochemical; conditions: read-out: Residual activity (%) at 1 μM
[34] = biological target: PDGFR-alpha (Homo sapiens (Human), UniProt P16234); assay: biochemical; conditions: read-out: Residual activity (%) at 1 μM
[35] = biological target: PDGFR-beta (Homo sapiens (Human), UniProt P09619); assay: biochemical; conditions: read-out: Residual activity (%) at 1 μM
[36] = biological target: ACV-R2B (Homo sapiens (Human), UniProt Q13705); assay: biochemical; conditions: read-out: Residual activity (%) at 1 μM
[37] = biological target: BMPR1A (Homo sapiens (Human), UniProt P36894); assay: biochemical; conditions: read-out: Residual activity (%) at 1 μM
[38] = biological target: ERBB2 (Homo sapiens (Human), UniProt P04626); assay: biochemical; conditions: read-out: Residual activity (%) at 1 μM
[39] = biological target: FGF-R2 (Homo sapiens (Human), UniProt P21802); assay: biochemical; conditions: read-out: Residual activity (%) at 1 μM
[40] = biological target: T2, FLT3; assay: biochemical; conditions: read-out: Residual activity (%) at 1 μM
[41] = biological target: T3, MAP3K11; assay: biochemical; conditions: read-out: Residual activity (%) at 1 μM, MAP3K11
[42] = biological target: T4, p38-beta; assay: biochemical; conditions: read-out: Residual activity (%) at 1 μM
[43] = biological target: T5, RET; assay: biochemical; conditions: read-out: Residual activity (%) at 1 μM, RET
[44] = biological target: MST4 (Homo sapiens (Human), UniProt Q9P289); assay: biochemical; conditions: read-out: Residual activity (%) at 1 μM
[45] = biological target: T6, NEK11; assay: biochemical; conditions: read-out: Residual activity (%) at 1 μM, NEK11
[46] = biological target: ACV-R1 (Homo sapiens (Human), UniProt Q04771); assay: biochemical; conditions: read-out: Residual activity (%) at 1 μM
[47] = biological target: BRAF (Homo sapiens (Human), UniProt P15056); assay: biochemical; conditions: read-out: Residual activity (%) at 1 μM, BRAF
[48] = biological target: TGFB-R1 (Homo sapiens (Human), UniProt P36897); assay: biochemical; conditions: read-out: Residual activity (%) at 1 μM
[49] = biological target: WNK2 (Homo sapiens (Human), UniProt Q9Y3S1); assay: biochemical; conditions: read-out: Residual activity (%) at 1 μM

With `Cc1nc(Nc2ncc(C(=O)Nc3c(C)cccc3Cl)s2)cc(N2CCN(CCO)CC2)n1` [Compound A8, N-(2-chloro-6-methylphenyl)-2-((6-(4-(2-hydroxyethyl)piperazin-1-yl)-2-methylpyrimidin-4-yl)amino)thiazole-5-carboxamide, reference compound] as the compound, how does the “Percentage unbound (%)” value [1] read?
Its value is 2%.

And the “immunosuppressive M2 macrophages (CD206+MHC-II+)” value [2]?
The value was “significantly reduced”.

What about the IC50 [3] of the same compound?
Its IC50 is under 100 nM.

And the “terminal / elimination half-life” value [4]?
The value was 3 to 5 h.

What about the IC50 [5] of the same compound?
The IC50 was 12 µM.

What about the anti-tumour activity [6] of the same compound?
The anti-tumour activity was “curative”.

And the remaining activity at 1 µM [7]?
Its remaining activity at 1 µM is 91%.

What about the remaining activity at 1 µM [8] of the same compound?
The remaining activity at 1 µM was 95%.

What about the remaining activity at 1 µM [9] of the same compound?
Its remaining activity at 1 µM is 86%.

And the remaining activity at 1 µM [10]?
The remaining activity at 1 µM was 100%.

What about the remaining activity at 1 µM [11] of the same compound?
The remaining activity at 1 µM was 10%.

What about the remaining activity at 1 µM [12] of the same compound?
Its remaining activity at 1 µM is 12%.

What about the remaining activity at 1 µM [13] of the same compound?
The remaining activity at 1 µM was 3%.

With `Cc1nc(Nc2ncc(C(=O)Nc3c(Cl)ccnc3C)s2)cc(N2CCN(CCO)CC2)n1` [Compound B3, N-(4-chloro-2-methylpyridin-3-yl)-2-((6-(4-(2-hydroxyethyl)piperazin-1-yl)-2-methylpyrimidin-4-yl)amino)thiazole-5-carboxamide] as the compound, how does the “Residual activity (%) at 1 μM” value [14] read?
The value was 86%.

What about the “Residual activity (%) at 1 μM” value [15] of the same compound?
Its value is 32%.

What about the “Residual activity (%) at 1 μM” value [16] of the same compound?
The value was 61%.

And the “Residual activity (%) at 1 μM” value [17]?
Its value is 63%.

And the “Residual activity (%) at 1 μM” value [18]?
The value was 98%.

And the “Residual activity (%) at 1 μM” value [19]?
Its value is 89%.

And the remaining activity at 1 µM [20]?
Its remaining activity at 1 µM is 100%.

And the remaining activity at 1 µM [21]?
Its remaining activity at 1 µM is 3%.

What about the remaining activity at 1 µM [22] of the same compound?
Its remaining activity at 1 µM is 0%.

And the remaining activity at 1 µM [23]?
Its remaining activity at 1 µM is 0%.

What about the remaining activity at 1 µM [24] of the same compound?
Its remaining activity at 1 µM is 10%.

And the remaining activity at 1 µM [25]?
The remaining activity at 1 µM was 1%.

And the remaining activity at 1 µM [26]?
The remaining activity at 1 µM was 86%.

And the remaining activity at 1 µM [27]?
The remaining activity at 1 µM was 88%.

And the remaining activity at 1 µM [28]?
Its remaining activity at 1 µM is 3%.

What about the remaining activity at 1 µM [29] of the same compound?
The remaining activity at 1 µM was 0%.

And the remaining activity at 1 µM [30]?
Its remaining activity at 1 µM is 15%.

What about the remaining activity at 1 µM [31] of the same compound?
The remaining activity at 1 µM was 3%.

And the remaining activity at 1 µM [32]?
The remaining activity at 1 µM was 1%.

What about the remaining activity at 1 µM [33] of the same compound?
Its remaining activity at 1 µM is 5%.

What about the remaining activity at 1 µM [34] of the same compound?
Its remaining activity at 1 µM is 18%.

What about the remaining activity at 1 µM [35] of the same compound?
Its remaining activity at 1 µM is 6%.

And the remaining activity at 1 µM [36]?
Its remaining activity at 1 µM is 57%.

What about the remaining activity at 1 µM [37] of the same compound?
The remaining activity at 1 µM was 83%.

What about the remaining activity at 1 µM [38] of the same compound?
The remaining activity at 1 µM was 84%.

What about the remaining activity at 1 µM [39] of the same compound?
The remaining activity at 1 µM was 74%.

And the remaining activity at 1 µM [40]?
The remaining activity at 1 µM was 32%.

What about the remaining activity at 1 µM [41] of the same compound?
Its remaining activity at 1 µM is 61%.

What about the remaining activity at 1 µM [42] of the same compound?
Its remaining activity at 1 µM is 63%.

What about the remaining activity at 1 µM [43] of the same compound?
Its remaining activity at 1 µM is about 100%.

What about the remaining activity at 1 µM [44] of the same compound?
Its remaining activity at 1 µM is 107%.

And the remaining activity at 1 µM [45]?
The remaining activity at 1 µM was about 90%.

And the remaining activity at 1 µM [46]?
Its remaining activity at 1 µM is 48%.

And the remaining activity at 1 µM [11]?
Its remaining activity at 1 µM is 41%.

What about the remaining activity at 1 µM [47] of the same compound?
Its remaining activity at 1 µM is about 50%.

And the remaining activity at 1 µM [12]?
The remaining activity at 1 µM was 38%.

And the remaining activity at 1 µM [48]?
The remaining activity at 1 µM was 28%.

And the remaining activity at 1 µM [49]?
The remaining activity at 1 µM was 100%.

And the remaining activity at 1 µM [13]?
The remaining activity at 1 µM was 28%.
